Measured values taken from ChEMBL document CHEMBL2331319, “Development of N-Hydroxycinnamamide-Based Histone Deacetylase Inhibitors with Indole-Containing Cap Group” (ACS Med Chem Lett, 2013).

Biological target: Histone deacetylase
Assay: Inhibition of HDAC in human HeLa cell nuclear extract using Boc-Lys(acetyl)-AMC as substrate preincubated with enzyme for 5 mins prior to substrate addition measured after 30 mins by fluorescence assay
Assay type: protein assay

For `CCCC(CCC)C(=O)N[C@H](COc1ccc(/C=C/C(=O)NO)cc1OC)Cc1c[nH]c2ccccc12`, the IC50 was 1080 nM.
